{
  "source": "patent WO2017102835A1",
  "key": {"IL-23 (human) [1]": {"target": "IL-23 (human) (UniProt Q9NPF7)", "assay": "cell-based or functional assay"}, "TNFa (human) [2]": {"target": "TNFa (human) (UniProt P01375)", "assay": "cell-based or functional assay"}, "IL-23 (human) [3]": {"target": "IL-23 (human) (UniProt Q9NPF7)", "assay": "indirect ELISA: bispecific pre-incubated with IL-23, free IL-23 captured on immobilised sensor MB23_DI4_B2fC, anti-p40 detection; affinity from a quadratic equation"}, "IL-23 (human) [4]": {"target": "IL-23 (human) (UniProt Q9NPF7)", "assay": "indirect IL-23 ELISA"}, "TNFa (human) [5]": {"target": "TNFa (human) (UniProt P01375)", "assay": "ELISA on immobilised biotinylated TNFa, anti-human-HRP detection; affinity from sigmoidal binding curve"}},
  "data": [
    {"substance": "CL_Ada-MB23_DI4 (bispecific antibody)", "values": [
      {"measurement": "IC50, IL-23 inhibition assay (splenocyte assay; IL-17 production by mouse splenocytes)", "setting": "IL-23 (human) [1]", "value": 0.65, "unit": "nM"},
      {"measurement": "fold loss of potency against the N-terminal fusions, IL-23 inhibition assay (splenocyte assay)", "setting": "IL-23 (human) [1]", "value": 10, "unit": "fold"},
      {"measurement": "IC50, TNFa inhibition assay (NF-kB activation assay, luciferase reporter cells)", "setting": "TNFa (human) [2]", "value": 0.29, "unit": "nM"}
    ]},
    {"substance": "CL_Ada-MB23_DI4 (bispecific antibody; other documents disagree on this pair)", "values": [
      {"measurement": "Kd", "setting": "IL-23 (human) [3]", "value": 4, "unit": "nM"},
      {"measurement": "fold drop in affinity against the N-terminal fusions", "setting": "IL-23 (human) [4]", "value": 10, "unit": "fold"},
      {"measurement": "Kd", "setting": "TNFa (human) [5]", "value": 0.41, "unit": "nM"}
    ]},
    {"substance": "MB23_DI4-VH_Ada (bispecific antibody)", "values": [
      {"measurement": "IC50, IL-23 inhibition assay (splenocyte assay; IL-17 production by mouse splenocytes)", "setting": "IL-23 (human) [1]", "value": 0.08, "unit": "nM"}
    ]},
    {"substance": "MB23_DI4-VH_Ada (bispecific antibody; other documents disagree on this pair)", "values": [
      {"measurement": "Kd", "setting": "IL-23 (human) [3]", "value": 0.4, "unit": "nM"}
    ]},
    {"substance": "MB23_DI4-VL_Ada (bispecific antibody)", "values": [
      {"measurement": "IC50, IL-23 inhibition assay (splenocyte assay; IL-17 production by mouse splenocytes)", "setting": "IL-23 (human) [1]", "value": 0.05, "unit": "nM"}
    ]},
    {"substance": "MB23_DI4-VL_Ada (bispecific antibody; other documents disagree on this pair)", "values": [
      {"measurement": "Kd", "setting": "IL-23 (human) [3]", "value": 0.4, "unit": "nM"}
    ]}
  ]
}
